How the values were obtained:
[1] = tested on: heart wall; test: [18F]F-AraG PET in cancer patients, myocardial uptake and safety; details: human, in vivo
From the text: FIG. 16 provides maximum intensity projection (MIP) [18F]F—AraG images of 18FDG and [18F]F—AraG myocardial uptake in a head and neck patient. The myocardial uptake in the diagnostic 18FDG obtained after fasting was low.
FIGS. 20A-20C show transverse [18F]F AraG PET images in a healthy volunteer in FIG. 20A and in a head and neck cancer patient in FIG. 20B. […] The increased signal before immunotherapy may indicate cardiotoxicity of prior anticancer treatments.
The safety and radiation dosimetry of [^18F]F—AraG was studied in six, healthy subjects (three male and three female) during the first-in-human study at UCSF. […] The signal persisted during the imaging window, indicating trapping of the tracer (FIG. 18). The tracer uptake appeared homogenous with no focal or regional increases. […] Radiomics, a computational method used to analyze and extract abundant quantitative features present in the images, such as texture, heterogeneity, and shape, has been mostly employed in oncologic imaging for improvement of cancer screening and early detection (48,49). […] Texture analysis of images can allow better characterization and quantification of the signal differences observed between healthy volunteers and some cancer patients (FIG. 20). […]

[2] = tested on: rat myocardium; test: Comparison of 18FDG and [18F]F-AraG uptake in rat myocardium; details: in vivo
From the text: The rats were imaged with tracers on consecutive days.

How did the Myocardial uptake [1] turn out when “^18F-fluorodeoxyglucose [18FDG, reference compound]” was run?
The Myocardial uptake was “low”.

What about the “Reproducibility of myocardial uptake” value [2] of the same substance?
The value was “variation”.

— patent publication US20230309833A1, “METHODS AND MATERIALS FOR USING [18F]-F-ARAG IN CARDIAC IMAGING” (CELLSIGHT TECHNOLOGIES INC., priority 2020, published 2023)
